Assay results from paper PMC4904262 (ACS Medicinal Chemistry Letters, 2016).

Chains of the proteins cited; added tags and fusions are not shown. Lines headed by an entry give the natural chain unless they say otherwise; changes in a name come on top.
UniProt Q8BTI9: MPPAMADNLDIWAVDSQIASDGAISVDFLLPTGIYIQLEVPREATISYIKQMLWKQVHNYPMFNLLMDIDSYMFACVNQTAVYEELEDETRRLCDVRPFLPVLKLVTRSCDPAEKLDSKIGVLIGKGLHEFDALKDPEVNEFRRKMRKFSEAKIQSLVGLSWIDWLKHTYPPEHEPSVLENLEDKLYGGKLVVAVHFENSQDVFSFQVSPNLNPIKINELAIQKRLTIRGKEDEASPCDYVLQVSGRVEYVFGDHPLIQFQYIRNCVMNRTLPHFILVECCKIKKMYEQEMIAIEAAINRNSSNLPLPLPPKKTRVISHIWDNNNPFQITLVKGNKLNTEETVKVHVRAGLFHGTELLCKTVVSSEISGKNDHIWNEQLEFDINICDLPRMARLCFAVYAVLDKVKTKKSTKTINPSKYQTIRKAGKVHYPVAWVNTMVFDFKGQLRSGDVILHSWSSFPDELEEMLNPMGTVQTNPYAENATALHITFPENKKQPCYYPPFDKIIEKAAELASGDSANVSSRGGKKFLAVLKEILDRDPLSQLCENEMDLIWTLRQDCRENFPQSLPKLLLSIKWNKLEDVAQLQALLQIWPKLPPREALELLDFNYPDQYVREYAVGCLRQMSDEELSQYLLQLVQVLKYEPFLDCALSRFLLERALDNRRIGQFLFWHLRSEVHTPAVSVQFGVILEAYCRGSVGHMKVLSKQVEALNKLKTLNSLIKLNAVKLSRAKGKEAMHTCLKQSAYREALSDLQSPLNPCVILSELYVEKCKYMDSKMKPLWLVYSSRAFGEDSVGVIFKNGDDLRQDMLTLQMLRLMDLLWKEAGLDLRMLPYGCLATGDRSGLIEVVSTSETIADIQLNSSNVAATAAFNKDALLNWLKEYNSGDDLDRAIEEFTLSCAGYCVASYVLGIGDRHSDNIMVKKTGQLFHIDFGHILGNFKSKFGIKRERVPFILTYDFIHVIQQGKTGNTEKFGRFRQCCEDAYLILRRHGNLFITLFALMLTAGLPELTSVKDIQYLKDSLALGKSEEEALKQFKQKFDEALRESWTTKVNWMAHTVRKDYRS

Molecular target: PI3 KINASE (P110B/P85B) (Mus musculus, UniProt Q8BTI9)
Details: 1 µM, ATP at Km

With COC1CN(C(=O)c2ccc3c(N)ncc(-c4ccc(-c5cnn(C)c5)cc4)c3c2)C1 [Compound 59] as the compound, how does the percentage effect read?
The percentage effect was -1%.
